Laboratory results as given in patent US20040106678A1, “Compositions for the parenteral administration of calcium and magnesium” (priority 2002, published 2004).

Legend:
solubility in water = assay type: physicochemical
[1] = cited from earlier work

Row | Substance | solubility over pH range (solubility in water; broad range of pH values) | saturated aqueous solution concentration (solubility in water; water, 20° C.) | solubility in water (parts of water needed to dissolve) ([1]; 20° C., slowly dissolves) | solubility in water with complexing agent ([1]; adding a complexing agent like boric acid)
1 | calcium 3-hydroxy-3-methylbutyrate [CaHMB] | remain highly soluble | 27 % by weight | – | –
2 | D-gluconic acid calcium salt [Calcium gluconate] | – | – | 30 parts of water | ≥ 20 % by weight
